From PubChem BioAssay AID651640 (Broad Institute, 2012) come the findings set out here.

Each structure is given as a SMILES string. The list shows a part of the results, in another mix than the full data. Inconclusive results are not listed. Active and inactive are the calls of the source. No stated cut-off is given here; in the data, active means CPE inhibition above about 20% (passing the limit was not always enough); inconclusive means no clear call, values can overlap the other calls; tested in BHK-21 cells.

A short description of the assay: inhibitors of DENV2 cytopathic effect, primary screen, cell-based, plate reader, single concentration (AID 651640).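 Further: 0% = median of neutral control wells and 100% = median of positive control wells.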 The settings on record: DENV2-infected cells, cytopathic effect rescue, at 9.99 µM, stronger effect = higher value.
For the molecule `CCC(=O)N(c1ccccc1)C1(COC)CCN(CCc2cccs2)CC1`, the CPE inhibition is inactive: -0.97%.
Turning to `CCC(=O)N(c1ccccc1)C1(COC)CCN(CCn2nnn(CC)c2=O)CC1`, the CPE inhibition is inactive: 9.39%.
